This passage reports remaining activity and remaining binding results from EP2505659A1, “Methods for the identification of dioxygenase interacting molecules and for the purification of dioxygenase proteins” (CELLZOME AG, priority 2011, dated 2012).

By UniProt entry, the sequences of proteins in these tests, tags left out. Where a name states a change or a piece, a line headed by the entry shows the natural chain unless it says otherwise. Residues count along the entry.
UniProt Q8N543: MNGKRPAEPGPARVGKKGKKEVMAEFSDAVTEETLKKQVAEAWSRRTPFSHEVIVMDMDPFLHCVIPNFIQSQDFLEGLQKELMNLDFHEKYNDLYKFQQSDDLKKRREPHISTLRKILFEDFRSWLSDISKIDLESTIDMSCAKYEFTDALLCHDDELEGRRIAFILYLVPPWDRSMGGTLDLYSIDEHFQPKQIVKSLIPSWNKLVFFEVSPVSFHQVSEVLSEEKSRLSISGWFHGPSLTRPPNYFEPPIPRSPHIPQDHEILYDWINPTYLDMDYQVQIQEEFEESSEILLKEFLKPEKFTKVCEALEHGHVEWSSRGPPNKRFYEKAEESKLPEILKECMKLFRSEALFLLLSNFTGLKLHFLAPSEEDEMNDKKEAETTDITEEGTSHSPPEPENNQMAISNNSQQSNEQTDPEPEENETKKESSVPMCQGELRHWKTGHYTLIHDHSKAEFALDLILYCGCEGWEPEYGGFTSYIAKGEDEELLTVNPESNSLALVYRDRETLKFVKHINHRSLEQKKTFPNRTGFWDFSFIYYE
UniProt Q6P6C2: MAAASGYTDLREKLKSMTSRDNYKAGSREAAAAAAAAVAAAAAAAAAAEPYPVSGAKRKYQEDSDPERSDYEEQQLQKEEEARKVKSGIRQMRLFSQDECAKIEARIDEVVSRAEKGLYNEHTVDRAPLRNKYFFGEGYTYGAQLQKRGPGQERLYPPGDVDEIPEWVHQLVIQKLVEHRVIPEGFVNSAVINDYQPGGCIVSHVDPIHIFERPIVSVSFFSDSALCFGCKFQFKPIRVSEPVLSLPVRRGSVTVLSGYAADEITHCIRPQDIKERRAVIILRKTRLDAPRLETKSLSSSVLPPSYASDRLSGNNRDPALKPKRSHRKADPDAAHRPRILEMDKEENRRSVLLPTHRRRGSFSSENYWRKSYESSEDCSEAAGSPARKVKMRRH
UniProt Q9GZT9: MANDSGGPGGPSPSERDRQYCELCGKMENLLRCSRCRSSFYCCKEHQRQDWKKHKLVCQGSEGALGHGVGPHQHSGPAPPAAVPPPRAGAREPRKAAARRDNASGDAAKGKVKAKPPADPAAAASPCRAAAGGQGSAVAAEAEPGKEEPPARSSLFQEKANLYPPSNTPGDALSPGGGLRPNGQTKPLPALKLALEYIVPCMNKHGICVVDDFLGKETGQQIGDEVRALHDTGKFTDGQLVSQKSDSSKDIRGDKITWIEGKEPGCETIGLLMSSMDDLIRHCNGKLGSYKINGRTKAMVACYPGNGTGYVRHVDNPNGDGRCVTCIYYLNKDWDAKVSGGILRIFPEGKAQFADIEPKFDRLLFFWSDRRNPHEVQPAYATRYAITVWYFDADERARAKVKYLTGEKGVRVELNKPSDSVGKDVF
UniProt P13674, 18-534: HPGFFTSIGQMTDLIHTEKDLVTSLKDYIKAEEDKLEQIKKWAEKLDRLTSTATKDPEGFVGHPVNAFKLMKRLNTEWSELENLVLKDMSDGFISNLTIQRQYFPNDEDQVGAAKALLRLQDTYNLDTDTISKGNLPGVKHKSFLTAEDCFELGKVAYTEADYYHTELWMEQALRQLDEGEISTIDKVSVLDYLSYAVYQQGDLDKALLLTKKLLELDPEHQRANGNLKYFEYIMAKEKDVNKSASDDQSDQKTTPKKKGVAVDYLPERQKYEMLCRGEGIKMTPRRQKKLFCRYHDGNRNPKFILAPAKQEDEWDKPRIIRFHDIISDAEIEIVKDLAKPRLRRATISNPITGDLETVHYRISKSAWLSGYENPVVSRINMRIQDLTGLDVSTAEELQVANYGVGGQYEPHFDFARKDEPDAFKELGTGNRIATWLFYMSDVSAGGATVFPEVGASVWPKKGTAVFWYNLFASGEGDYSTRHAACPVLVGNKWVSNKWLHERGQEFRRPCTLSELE

Molecules are shown by their SMILES. Structures can show the parent of a compound that is named as a salt.

Conditions in all cases: read-out: Fold change versus DMSO control
Test [1] has as its target OGFOD1 (Homo sapiens, UniProt Q8N543). In words: biochemical. The method, then: (§1) Cells were harvested by centrifugation, washed once with 1 x PBS buffer (Invitrogen, #14190-094) and cell pellets were frozen in liquid nitrogen and subsequently stored at -80°C.
(§2) Cells were homogenized in a Potter S homogenizer in lysis buffer: 50 mM Tris-HCl, 0.8% NP40, 5% glycerol, 150 mM NaCl, 1.5 mM MgCl2, 25 mM NaF, 1 mM sodium vanadate, 1 mM DTT, pH 7.5. […] The supernatant was transferred again to a fresh 50 ml falcon tube, the protein concentration was determined by a Bradford assay (BioRad) and samples containing 50 mg of protein per aliquot were prepared.

Test [2] deals with ALKBH5 (Homo sapiens, UniProt Q6P6C2). Description: biochemical. As for the experimental part:
as §1, §2

In test [3] the target is T1, C17ORF101 (Homo sapiens, UniProt Q6PK18).
T1 sequence (Q6PK18 1-331 isoform Q6PK18-2): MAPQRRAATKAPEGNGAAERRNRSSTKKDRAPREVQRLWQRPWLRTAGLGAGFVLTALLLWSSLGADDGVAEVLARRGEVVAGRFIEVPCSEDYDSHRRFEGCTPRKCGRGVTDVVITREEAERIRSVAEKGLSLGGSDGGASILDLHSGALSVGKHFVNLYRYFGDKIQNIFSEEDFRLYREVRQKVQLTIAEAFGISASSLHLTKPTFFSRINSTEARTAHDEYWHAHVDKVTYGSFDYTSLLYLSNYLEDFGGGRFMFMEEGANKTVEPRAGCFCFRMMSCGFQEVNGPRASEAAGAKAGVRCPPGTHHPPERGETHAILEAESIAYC
In words: biochemical. The method, then:
as §1, §2

In test [4] the target is T2, ALKBH3 (Homo sapiens, UniProt Q96Q83).
T2 sequence (Q96Q83 1-286): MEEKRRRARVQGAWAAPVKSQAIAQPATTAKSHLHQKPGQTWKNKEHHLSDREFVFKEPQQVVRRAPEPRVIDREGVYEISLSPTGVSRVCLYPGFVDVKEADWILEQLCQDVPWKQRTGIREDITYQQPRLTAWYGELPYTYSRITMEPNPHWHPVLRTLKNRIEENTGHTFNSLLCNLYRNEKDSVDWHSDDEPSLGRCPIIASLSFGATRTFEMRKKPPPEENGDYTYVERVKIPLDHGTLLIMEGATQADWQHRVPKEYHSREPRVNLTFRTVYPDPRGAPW
Description: biochemical. As for the experimental part:
as §1, §2

Test [5] addresses EGLN1 (Homo sapiens, UniProt Q9GZT9). In words: biochemical. The method, then: as §1, §2
The target of test [6] is T3, LEPRE1 (Homo sapiens, UniProt Q32P28).
T3 sequence (Q32P28 23-736): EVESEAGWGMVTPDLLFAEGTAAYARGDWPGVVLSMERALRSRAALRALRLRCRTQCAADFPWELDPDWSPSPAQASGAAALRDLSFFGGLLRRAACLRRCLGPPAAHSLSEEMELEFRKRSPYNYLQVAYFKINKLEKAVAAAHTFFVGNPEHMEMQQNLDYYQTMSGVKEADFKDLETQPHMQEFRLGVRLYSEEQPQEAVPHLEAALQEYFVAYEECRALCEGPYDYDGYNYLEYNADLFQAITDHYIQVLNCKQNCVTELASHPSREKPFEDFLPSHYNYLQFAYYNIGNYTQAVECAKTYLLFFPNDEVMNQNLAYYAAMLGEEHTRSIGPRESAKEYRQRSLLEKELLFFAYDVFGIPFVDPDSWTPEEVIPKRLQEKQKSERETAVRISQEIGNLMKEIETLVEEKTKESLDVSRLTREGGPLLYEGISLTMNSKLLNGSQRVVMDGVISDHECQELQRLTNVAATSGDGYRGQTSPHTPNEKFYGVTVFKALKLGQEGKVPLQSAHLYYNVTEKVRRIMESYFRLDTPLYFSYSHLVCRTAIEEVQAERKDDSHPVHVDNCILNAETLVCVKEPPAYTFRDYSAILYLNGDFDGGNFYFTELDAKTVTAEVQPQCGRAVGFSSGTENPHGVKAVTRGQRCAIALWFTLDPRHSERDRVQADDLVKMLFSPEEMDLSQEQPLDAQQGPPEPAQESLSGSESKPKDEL
Description: biochemical. As for the experimental part:
as §1, §2

The target in test [7] is P4HA1 (Homo sapiens, UniProt P13674). Description: Bead competition binding assay, immobilized compound A, K-562, HL-60 and Jurkat nuclear lysates. Set-up: endogenous in cells. The source says:
The proteins bound to the immobilized compound were eluted with detergent-containing buffer and separated on a SDS-polyacryamide gel. […] Table 4: Compound treatment and TMT-labeling of cell samples
Jurkat cells (ATCC number TIB-152) were either obtained from an external supplier (CIL SA, Mons, Belgium) or grown in one litre Spinner flasks (Integra Biosciences, #182101) in suspension in RPMI 1640 medium (Invitrogen, #21875-034) supplemented with 10% Fetal Bovine Serum (Invitrogen, #10270-106) at a density between 0.2 x 10^6 and 1.0 x 10^6 cells/ml. Cells were harvested by centrifugation, washed once with 1 x PBS buffer (Invitrogen, #14190-094) and cell pellets were frozen in liquid nitrogen and subsequently stored at -80°C.
Source of HL-60 cells: HL-60 cell line (DSMZ, Braunschweig, Germany; DSMZ number ACC3). K562 cells were also purchased from DSMZ (Braunschweig, Germany).
Extracts of nuclei were prepared according to the Dignam protocol (Dignam et al., 1983. Nucleic Acids Res. 11 (5):1475-89).
The TMT reagents are a set of multiplexed, amine-specific, stable isotope reagents that can label peptides on amino groups in up to six different biological samples enabling simultaneous identification and quantitation of peptides. The TMT reagents were used according to instructions provided by the manufacturer. […]

As to `O=C(O)CNC(=O)C1C(=O)OC2(CCNCC2)OC1=O` [compound A, 2-(2,4-dioxo-1,5-dioxa-9-azaspiro[5.5]undecane-3-carboxamido)acetic acid hydrochloride], the remaining activity at 200 µM in test [1] came out at 22%; in test [2], 48%; in test [3], 42%; in test [4], 45%; in test [5] it was 20%; in test [6], 70%. The remaining binding at 100 µM in test [7] was 14%.
